{
  "source": "ChEMBL document CHEMBL3085664",
  "about": "“Structure-activity relationship of imidazopyridinium analogues as antagonists of neuropeptide s receptor” (J Med Chem, 2013)",
  "data": [
    {"target": "T1, Neuropeptide S receptor (Homo sapiens) (UniProt Q6W5P4)", "T1 sequence (whole entry)": "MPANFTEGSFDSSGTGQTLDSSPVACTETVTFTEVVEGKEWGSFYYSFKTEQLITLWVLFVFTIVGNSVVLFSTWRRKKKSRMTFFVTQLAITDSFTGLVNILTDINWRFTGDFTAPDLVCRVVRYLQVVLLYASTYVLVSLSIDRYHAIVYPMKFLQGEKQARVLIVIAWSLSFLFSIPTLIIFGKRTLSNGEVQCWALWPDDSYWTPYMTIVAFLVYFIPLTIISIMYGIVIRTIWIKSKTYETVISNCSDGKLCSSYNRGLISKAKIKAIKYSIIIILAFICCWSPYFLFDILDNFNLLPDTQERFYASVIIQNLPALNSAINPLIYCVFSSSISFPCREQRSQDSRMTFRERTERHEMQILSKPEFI", "assay": "Antagonist activity at neuropeptide S receptor (unknown origin) expressed in CHO cells assessed as inhibition of NPS-induced ERK activation at 50 uM after 20 mins by HTRF assay relative to control", "type": "cell-based", "units": {"inhibition": "%"}, "values": [
      {"smiles": "O=P(c1ccccc1)(c1ccccc1)c1cnc2ccccn12", "inhibition": "< 50"},
      {"smiles": "OC(c1ccccc1)(c1ccccc1)c1cnc2ccccn12", "inhibition": "< 50"},
      {"smiles": "c1ccc(P(c2ccccc2)c2cnc3ccccn23)cc1", "inhibition": "< 50"},
      {"smiles": "C[n+]1cc(C(O)(c2ccccc2)c2ccccc2)n2ccccc21.O=C([O-])C(F)(F)F", "inhibition": "< 50"},
      {"smiles": "Cc1c(C(O)(c2ccccc2)c2ccccc2)n2ccccc2[n+]1C.O=C([O-])C(F)(F)F", "inhibition": "< 50"},
      {"smiles": "Cc1nc2ccccn2c1P(=O)(c1ccccc1)c1ccccc1", "inhibition": "< 50"},
      {"smiles": "Cc1nc2ccccn2c1C(O)(c1ccccc1)c1ccccc1", "inhibition": "< 50"}
    ]}
  ]
}
